These results are taken from publication PMC7326497, “Membrane characteristics tune activities of endosomal and autophagic human VPS34 complexes” (eLife, 2020).

The target of this experiment is T1, human VPS15, subunit of complexes I and II (human).
T1 construct: VPS15, human; expressed as HsVPS15-3xTEV-ZZ from the plasmid HsVPS34 + HsVPS15-3xTEV-ZZ; A 3xTEV site lies between VPS15 and ZZ; whether the tag was cut off is told only in Ohashi et al., 2016; The printed theoretical masses fit tag-free whole chains (my reckoning); also called HsVPS15; source: Expi293 cells, transfected, co-expressed with the other subunits, purified as a complex (method of …)
The experiment in a line: SEC-MALS; purified, co-expressed human complex I at 1 mg/mL; Superose 6 10/300, 0.5 mL/min; measured 370 kDa against 363 kDa theoretical. Conditions: both partners purified.

B1: human ATG14L, specific subunit of complex I (natural protein)
chain: not shown
notes: ATG14L, human; see Supplementary file 6; also called HsATG14L; Barkor; source: Expi293 cells, transfected, co-expressed with the other subunits, purified as a complex (method of Ohashi et al., 2016); not shown: ZZ (only in pYO1017)
The stoichiometry N is a count of units in the complex or per binding partner. On to B1, for which the “stoichiometry N” value was determined as 1.
